Assays:
LmPTR1 = biological target: T1, LmPTR1 (Leishmania major, UniProt Q01782); test: biochemical
T1 construct: made in house
T1 sequence (Q01782 1-288): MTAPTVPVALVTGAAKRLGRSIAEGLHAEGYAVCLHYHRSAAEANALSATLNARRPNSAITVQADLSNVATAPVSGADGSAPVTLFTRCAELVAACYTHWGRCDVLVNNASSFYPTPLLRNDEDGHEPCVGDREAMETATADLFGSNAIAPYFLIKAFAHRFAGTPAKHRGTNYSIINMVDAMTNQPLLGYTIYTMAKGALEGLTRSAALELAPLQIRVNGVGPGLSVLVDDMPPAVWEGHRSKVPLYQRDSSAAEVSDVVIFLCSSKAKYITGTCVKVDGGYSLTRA

PTR1 = biological target: T2, PTR1 (UniProt Q01782); conditions: read-out: PTR1 Ki (third value of three-value lines); species column (Lm or Tc) not resolvable
T2 sequence (Q01782 1-288): T1 sequence (Q01782 1-288)

COC(=O)C1CCN(C(=O)c2ccc(N(C)Cc3cnc4nc(N)nc(N)c4n3)cc2)CC1
Ki (LmPTR1): 37 nM

CCOC(=O)CN(Cc1cnc2nc(N)nc(N)c2n1)c1ccc(C(=O)N2CCC(C(=O)OC)CC2)cc1
Ki (PTR1): 100 nM

COC(=O)C1CCN(C(=O)c2ccc(N(CCO)Cc3cnc4nc(N)nc(N)c4n3)cc2)CC1
Ki (PTR1): 30 nM

Source: patent US20100305134A1, “SPECIFIC INHIBITORS OF PTERIDINE REDUCTASE WITH ANTIPARASITIC ACTION” (priority 2007, published 2010)
